From patent US20250325793A1, “INTRACALVARIOSSEOUS DRUG ADMINISTRATION DEVICE FOR DELIVERING DRUG BY BYPASSING BLOOD-BRAIN BARRIER” (GACHON UNIVERSITY OF INDUSTRY-ACADEMIC COOPERATION …, priority 2023, published 2025)

Assay: Plasma, brain interstitial fluid (microdialysis) and whole-brain drug levels after intravenous (IV) and intracalvariosseous (ICO) administration

CCN(C)C(=O)Oc1cccc([C@H](C)N(C)C)c1.O=C(O)C(O)C(O)C(=O)O [RVG, rivastigmine i-tartrates]
brain-to-plasma ratio (Kp), ICO administration group relative to IV administration group (at 24 hours after administration, fold higher in ICO (5 mg/kg) than IV (0.5 mg/kg)): 107.8 times
AUCplasma of the ICO administration group compared with the IV administration group (rat plasma, up to 24 h, ICO 5 mg/kg vs IV 0.5 mg/kg): relatively lower
Cbr (brain drug concentration), ICO administration group relative to IV administration group (whole brain at 24 hours after administration, fold higher in ICO (5 mg/kg) than IV (0.5 mg/kg)): 18.6 times
